pIC50: −log10 of the molar value.
Molecular target: hB2 receptor (Homo sapiens, UniProt P30411)
Test: In vitro Assay of hB2 Receptor Function using Calcium Flux
Assay type: cell-based
Conditions: read-out: Data (um), recombinant CHO cells, antagonist IC50 against agonist at EC80

Protein sequences, listed by entry. Tags and fused reporters are not part of them.
UniProt P30411, whole entry: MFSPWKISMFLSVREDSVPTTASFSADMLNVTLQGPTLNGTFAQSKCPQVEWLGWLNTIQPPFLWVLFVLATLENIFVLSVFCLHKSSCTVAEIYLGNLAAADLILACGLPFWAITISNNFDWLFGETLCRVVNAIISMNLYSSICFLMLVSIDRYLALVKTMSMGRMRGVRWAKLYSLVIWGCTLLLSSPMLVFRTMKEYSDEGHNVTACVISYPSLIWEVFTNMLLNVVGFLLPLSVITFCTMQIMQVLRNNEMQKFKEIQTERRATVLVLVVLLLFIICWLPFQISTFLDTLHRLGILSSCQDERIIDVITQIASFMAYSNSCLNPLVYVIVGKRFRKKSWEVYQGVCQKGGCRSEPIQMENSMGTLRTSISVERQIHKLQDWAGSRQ

SMILES	pIC50
Cc1ccc(S(=O)(=O)N2C=CNC(=O)[C@H]2CC(=O)N2CCC(c3ccc(C(F)(F)F)cc3)CC2)cc1	6.07
Cc1ccc(S(=O)(=O)N2C=CNC(=O)[C@H]2CC(=O)NC2CCCCC2(C)O)cc1 (some centres unmarked)	6.38
